Measurements reported in ChEMBL document CHEMBL1142243, “Potent and selective alpha-ketoheterocycle-based inhibitors of the anandamide and oleamide catabolizing enzyme, fatty acid amide hydrolase” (J Med Chem, 2007).

Target: Fatty-acid amide hydrolase 1 (Rattus norvegicus) (UniProt P97612)
Assay: Inhibition of rat recombinant FAAH expressed in Escherichia coli by [14C]oleamide breakdown

Row | Structure (SMILES) | Ki
1 | O=C(CCCCCCc1ccccc1)c1ncc(-c2ccccc2)o1 | 80 nM
2 | COC(=O)c1cccc(-c2cnc(C(=O)CCCCCCc3ccccc3)o2)n1 | 8 nM
